This data set concerns rats. The following applies: single dose 100 mg/Kg by oral way in carboxymethylcellulose aqueous suspension 2% w/v; group of 10 rats; observation for 14 days.

As for “cimetidine mononitrate salt [Cimetidine.HNO3]”, the toxic symptom presence result is given as “In no one of the group animals the toxic symthom presence was noted”.

The record behind these values is US6503929B1, “Nitrate salt of anti-ulcer medicine” (Nicox S.A., priority 1998, dated 2003).
